In ChEMBL document CHEMBL1156762, “Deciphering the mechanism of carbonic anhydrase inhibition with coumarins and thiocoumarins” (J Med Chem, 2010) one finds Ki data, which are given here for two compounds.

The target of one experiment is Carbonic anhydrase 9 (Homo sapiens, UniProt Q16790).
A further experiment deals with Carbonic anhydrase 13 (Mus musculus, UniProt Q9D6N1).

Turning to `O=c1ccc2ccccc2o1` [COUMARIN], the Ki (as a rule, the dissociation constant of the complex between target and ligand, obtained from inhibition or displacement) at Carbonic anhydrase 9 came to 9.1 µM.

The compound `COc1cccc2cc(C(=O)O)c(=O)oc12` registered a Ki at Carbonic anhydrase 13 of 6.6 µM. That is a single-digit micromolar value.
